Reference: ChEMBL document CHEMBL4359863, “Structure-guided development of purine amide, hydroxamate, and amidoxime for the inhibition of non-small cell lung cancer” (Eur J Med Chem, 2019)

Protein sequences, listed by entry. Tags and fused reporters are not part of them. Lines headed by an entry give the natural chain unless they say otherwise; changes in a name come on top.
UniProt P08631: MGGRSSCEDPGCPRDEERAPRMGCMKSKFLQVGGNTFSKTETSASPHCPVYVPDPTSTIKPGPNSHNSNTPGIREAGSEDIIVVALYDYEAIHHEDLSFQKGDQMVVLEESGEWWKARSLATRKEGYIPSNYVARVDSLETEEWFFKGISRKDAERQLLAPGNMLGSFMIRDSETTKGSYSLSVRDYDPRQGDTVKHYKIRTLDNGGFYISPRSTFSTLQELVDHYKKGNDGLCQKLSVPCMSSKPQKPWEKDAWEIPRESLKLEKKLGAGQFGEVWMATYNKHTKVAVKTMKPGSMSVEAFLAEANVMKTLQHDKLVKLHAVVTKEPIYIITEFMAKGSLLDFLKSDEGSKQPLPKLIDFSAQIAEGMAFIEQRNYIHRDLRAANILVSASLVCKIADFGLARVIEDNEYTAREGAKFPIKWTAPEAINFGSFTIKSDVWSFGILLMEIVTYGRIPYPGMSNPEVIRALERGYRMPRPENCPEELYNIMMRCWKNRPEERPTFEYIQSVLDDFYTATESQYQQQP
UniProt P04637, whole entry, looked up: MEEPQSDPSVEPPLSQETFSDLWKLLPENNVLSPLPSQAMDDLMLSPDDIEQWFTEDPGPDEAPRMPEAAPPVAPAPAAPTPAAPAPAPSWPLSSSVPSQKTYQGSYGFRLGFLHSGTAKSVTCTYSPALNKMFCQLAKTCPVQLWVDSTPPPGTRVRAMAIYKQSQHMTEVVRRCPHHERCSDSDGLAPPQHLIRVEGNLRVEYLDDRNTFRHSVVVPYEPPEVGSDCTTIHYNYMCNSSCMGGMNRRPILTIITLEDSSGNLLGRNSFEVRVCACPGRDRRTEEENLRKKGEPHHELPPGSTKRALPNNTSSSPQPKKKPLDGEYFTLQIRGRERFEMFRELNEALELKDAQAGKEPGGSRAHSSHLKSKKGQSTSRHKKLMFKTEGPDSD
UniProt Q14289, whole entry, looked up: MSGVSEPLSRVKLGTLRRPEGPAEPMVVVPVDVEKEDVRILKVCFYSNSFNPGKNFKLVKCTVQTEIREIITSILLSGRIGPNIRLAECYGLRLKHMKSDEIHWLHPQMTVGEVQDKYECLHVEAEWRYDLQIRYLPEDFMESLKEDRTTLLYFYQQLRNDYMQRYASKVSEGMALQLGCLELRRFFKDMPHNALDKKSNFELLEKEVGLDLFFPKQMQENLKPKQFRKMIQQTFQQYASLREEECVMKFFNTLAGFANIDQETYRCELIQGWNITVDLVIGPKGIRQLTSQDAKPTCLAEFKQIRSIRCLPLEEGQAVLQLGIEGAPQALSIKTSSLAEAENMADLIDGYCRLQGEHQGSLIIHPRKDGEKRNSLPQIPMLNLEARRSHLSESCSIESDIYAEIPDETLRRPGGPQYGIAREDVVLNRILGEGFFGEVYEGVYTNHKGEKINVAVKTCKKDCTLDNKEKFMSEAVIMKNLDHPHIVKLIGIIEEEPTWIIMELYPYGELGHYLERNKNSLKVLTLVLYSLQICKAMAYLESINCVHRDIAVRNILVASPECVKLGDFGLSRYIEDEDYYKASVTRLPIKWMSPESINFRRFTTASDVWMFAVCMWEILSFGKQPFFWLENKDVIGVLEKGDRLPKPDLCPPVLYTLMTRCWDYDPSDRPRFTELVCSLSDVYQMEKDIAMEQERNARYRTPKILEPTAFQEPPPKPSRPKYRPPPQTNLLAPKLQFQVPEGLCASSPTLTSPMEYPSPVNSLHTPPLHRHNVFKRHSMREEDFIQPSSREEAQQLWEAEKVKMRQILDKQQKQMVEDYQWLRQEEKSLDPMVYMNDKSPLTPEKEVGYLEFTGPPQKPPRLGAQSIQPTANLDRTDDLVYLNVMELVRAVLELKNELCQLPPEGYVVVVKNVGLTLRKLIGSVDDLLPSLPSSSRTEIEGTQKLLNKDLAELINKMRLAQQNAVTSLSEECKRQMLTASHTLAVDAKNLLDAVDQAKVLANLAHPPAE
UniProt O96017, whole entry: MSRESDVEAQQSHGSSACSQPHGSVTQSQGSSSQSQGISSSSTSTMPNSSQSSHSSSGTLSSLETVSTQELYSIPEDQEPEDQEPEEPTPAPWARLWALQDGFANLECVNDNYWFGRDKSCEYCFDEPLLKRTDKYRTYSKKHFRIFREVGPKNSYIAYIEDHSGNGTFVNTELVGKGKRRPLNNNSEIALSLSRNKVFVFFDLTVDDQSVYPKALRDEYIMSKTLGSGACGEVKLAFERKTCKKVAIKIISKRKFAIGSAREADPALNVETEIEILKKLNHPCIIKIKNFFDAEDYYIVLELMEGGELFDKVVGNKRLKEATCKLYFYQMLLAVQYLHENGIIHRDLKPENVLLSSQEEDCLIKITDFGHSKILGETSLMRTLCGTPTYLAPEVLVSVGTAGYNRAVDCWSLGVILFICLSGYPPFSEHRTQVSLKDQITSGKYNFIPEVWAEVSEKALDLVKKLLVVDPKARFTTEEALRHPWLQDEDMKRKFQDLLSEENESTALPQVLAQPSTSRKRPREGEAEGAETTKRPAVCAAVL
UniProt P27361, whole entry, looked up: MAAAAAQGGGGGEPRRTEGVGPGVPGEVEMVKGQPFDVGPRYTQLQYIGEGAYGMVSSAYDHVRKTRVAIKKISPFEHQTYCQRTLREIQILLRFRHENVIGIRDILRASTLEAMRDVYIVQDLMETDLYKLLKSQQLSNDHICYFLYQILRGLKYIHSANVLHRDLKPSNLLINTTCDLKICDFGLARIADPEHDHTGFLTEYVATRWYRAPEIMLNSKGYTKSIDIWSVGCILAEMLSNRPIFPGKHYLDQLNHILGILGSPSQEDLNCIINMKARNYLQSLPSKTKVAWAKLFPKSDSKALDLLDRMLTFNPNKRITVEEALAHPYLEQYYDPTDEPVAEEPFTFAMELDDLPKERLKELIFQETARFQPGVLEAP
UniProt P45983: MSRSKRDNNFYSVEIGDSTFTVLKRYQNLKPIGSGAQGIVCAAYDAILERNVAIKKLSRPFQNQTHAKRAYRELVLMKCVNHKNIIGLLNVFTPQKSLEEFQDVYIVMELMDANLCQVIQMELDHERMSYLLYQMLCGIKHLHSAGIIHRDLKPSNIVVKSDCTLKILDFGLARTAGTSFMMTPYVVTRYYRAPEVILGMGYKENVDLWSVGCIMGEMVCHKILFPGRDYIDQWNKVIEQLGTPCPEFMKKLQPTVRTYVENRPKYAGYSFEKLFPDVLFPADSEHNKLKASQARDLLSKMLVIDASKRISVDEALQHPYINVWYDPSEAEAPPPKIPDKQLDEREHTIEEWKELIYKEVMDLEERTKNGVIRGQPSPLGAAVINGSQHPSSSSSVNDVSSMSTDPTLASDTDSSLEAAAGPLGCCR
UniProt Q05397, whole entry, looked up: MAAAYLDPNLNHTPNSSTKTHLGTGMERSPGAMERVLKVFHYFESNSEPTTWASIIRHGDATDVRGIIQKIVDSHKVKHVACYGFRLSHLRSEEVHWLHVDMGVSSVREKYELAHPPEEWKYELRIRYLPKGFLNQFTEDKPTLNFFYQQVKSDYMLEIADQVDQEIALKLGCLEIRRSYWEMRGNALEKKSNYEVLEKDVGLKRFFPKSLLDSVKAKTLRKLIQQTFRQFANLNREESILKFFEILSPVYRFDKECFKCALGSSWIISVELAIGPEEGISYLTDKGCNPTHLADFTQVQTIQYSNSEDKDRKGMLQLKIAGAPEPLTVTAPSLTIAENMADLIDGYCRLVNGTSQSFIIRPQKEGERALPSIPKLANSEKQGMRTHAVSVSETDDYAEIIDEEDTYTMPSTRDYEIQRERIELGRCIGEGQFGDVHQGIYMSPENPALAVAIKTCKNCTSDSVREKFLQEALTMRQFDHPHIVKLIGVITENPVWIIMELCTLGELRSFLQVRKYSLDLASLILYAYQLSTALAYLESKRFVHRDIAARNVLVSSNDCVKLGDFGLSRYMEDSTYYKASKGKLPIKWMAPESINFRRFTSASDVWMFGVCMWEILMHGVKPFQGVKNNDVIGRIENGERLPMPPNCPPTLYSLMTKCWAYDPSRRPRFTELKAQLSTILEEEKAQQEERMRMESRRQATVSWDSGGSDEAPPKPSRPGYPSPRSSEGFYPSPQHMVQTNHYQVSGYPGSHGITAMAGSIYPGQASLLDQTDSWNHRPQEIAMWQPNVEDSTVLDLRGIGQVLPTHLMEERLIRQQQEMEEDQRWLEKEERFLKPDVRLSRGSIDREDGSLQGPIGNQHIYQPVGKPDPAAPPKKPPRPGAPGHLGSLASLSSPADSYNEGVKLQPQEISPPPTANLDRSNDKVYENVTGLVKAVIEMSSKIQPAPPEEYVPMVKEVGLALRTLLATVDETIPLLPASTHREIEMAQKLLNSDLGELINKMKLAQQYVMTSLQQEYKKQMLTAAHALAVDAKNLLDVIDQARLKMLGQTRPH
UniProt Q13131: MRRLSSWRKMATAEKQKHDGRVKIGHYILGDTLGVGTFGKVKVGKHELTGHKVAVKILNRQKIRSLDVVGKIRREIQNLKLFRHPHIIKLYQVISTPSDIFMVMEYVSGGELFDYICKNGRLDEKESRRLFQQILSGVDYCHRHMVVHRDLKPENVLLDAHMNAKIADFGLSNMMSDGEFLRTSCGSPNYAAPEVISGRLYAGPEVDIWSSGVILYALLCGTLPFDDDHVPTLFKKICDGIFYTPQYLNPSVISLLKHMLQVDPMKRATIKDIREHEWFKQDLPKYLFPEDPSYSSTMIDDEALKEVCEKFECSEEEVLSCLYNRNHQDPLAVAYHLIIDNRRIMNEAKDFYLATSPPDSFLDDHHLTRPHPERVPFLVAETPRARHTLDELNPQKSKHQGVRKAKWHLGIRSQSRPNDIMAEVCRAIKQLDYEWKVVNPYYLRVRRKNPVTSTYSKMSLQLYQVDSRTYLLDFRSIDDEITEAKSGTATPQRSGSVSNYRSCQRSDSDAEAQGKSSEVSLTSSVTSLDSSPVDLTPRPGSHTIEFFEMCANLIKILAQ
UniProt P05412, whole entry: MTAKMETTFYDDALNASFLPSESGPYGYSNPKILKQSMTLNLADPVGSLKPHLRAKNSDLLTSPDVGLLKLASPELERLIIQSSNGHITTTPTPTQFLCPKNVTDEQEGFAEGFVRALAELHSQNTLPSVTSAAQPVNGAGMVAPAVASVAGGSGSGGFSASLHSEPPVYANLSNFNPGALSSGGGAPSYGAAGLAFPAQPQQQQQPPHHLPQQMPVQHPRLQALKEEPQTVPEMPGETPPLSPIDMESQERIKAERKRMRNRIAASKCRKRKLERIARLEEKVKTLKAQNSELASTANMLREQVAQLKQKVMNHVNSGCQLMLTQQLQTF
UniProt P31751: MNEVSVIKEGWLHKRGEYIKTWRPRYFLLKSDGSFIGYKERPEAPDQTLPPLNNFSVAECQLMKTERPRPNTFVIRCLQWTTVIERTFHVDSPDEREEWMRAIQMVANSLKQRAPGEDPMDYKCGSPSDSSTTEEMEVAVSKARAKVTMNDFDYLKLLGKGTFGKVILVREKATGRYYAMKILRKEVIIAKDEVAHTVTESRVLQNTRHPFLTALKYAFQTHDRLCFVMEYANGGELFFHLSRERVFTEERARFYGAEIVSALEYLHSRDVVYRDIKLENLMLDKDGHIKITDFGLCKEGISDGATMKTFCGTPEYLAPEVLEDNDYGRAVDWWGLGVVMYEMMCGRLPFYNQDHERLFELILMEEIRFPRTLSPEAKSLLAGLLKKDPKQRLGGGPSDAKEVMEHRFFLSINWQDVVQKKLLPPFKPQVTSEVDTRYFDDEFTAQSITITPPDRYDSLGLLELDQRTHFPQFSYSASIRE
UniProt Q9Y243: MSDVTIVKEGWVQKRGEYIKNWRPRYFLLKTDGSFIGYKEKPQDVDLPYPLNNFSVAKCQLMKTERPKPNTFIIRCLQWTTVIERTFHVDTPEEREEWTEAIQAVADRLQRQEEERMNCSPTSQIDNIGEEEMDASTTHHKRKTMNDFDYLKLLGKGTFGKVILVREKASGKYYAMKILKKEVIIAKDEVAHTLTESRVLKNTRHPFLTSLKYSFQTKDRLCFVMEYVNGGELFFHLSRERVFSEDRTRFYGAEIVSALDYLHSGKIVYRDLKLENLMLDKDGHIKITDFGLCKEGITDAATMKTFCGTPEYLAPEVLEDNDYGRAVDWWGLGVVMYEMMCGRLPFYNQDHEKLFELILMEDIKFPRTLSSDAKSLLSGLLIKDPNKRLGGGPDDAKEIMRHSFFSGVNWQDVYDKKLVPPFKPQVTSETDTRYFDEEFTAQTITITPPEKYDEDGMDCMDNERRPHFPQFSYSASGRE
UniProt P46527, whole entry: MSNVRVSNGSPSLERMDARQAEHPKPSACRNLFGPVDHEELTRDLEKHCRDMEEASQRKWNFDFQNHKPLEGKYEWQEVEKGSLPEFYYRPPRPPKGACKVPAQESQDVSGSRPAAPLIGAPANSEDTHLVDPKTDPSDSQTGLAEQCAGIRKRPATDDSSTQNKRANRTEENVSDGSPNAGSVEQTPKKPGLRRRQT

What was measured:
Format in all cases: cell-based
[1] = target: Tyrosine-protein kinase HCK (Homo sapiens) (UniProt P08631); assay: Effect on Hck at Y411 phosphorylation level in human NCI-H1975 incubated for 12 hrs by human phosphokinase proteome profiler array relative to control
[2] = target: Cellular tumor antigen p53 (Homo sapiens) (UniProt P04637); assay: Effect on p53 at S392 phosphorylation level in human NCI-H1975 incubated for 12 hrs by human phosphokinase proteome profiler array relative to control
[3] = target: Protein-tyrosine kinase 2-beta (Homo sapiens) (UniProt Q14289); assay: Effect on PYK2 at Y402 phosphorylation level in human NCI-H1975 incubated for 12 hrs by human phosphokinase proteome profiler array relative to control
[4] = target: Serine/threonine-protein kinase Chk2 (Homo sapiens) (UniProt O96017); assay: Effect on CHK2 at T68 phosphorylation level in human NCI-H1975 incubated for 12 hrs by human phosphokinase proteome profiler array relative to beta-catenin
[5] = target: T1, Signal transducer and activator of transcription 6 (Homo sapiens) (UniProt P42226); assay: Effect on STAT6 at Y641 phosphorylation level in human NCI-H1975 incubated for 12 hrs by human phosphokinase proteome profiler array relative to beta-catenin
T1 sequence (whole entry): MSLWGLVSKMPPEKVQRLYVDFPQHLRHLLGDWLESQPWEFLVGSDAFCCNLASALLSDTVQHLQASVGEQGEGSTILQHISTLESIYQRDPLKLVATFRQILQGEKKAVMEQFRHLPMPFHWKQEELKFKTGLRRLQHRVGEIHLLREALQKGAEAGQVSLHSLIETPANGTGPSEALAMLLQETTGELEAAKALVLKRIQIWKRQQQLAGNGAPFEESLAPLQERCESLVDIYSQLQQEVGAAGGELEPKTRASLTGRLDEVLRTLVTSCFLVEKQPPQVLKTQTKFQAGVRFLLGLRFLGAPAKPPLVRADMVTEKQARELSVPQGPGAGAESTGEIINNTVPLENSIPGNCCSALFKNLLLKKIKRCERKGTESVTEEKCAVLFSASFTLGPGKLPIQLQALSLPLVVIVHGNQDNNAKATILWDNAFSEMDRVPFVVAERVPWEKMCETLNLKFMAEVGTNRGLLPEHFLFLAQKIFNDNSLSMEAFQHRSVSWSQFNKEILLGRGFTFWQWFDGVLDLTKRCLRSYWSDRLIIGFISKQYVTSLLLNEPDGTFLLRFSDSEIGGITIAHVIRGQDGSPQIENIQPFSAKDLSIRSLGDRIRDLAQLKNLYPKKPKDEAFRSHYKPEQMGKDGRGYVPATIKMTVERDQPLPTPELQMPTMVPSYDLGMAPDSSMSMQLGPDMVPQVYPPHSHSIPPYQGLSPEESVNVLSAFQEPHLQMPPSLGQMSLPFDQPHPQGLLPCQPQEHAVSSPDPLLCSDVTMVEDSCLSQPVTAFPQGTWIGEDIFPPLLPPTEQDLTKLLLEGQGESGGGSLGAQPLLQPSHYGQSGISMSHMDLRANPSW

[6] = target: Mitogen-activated protein kinase 14 (Homo sapiens) (UniProt Q16539); assay: Effect on p38alpha at T180/Y182 phosphorylation level in human NCI-H1975 incubated for 12 hrs by human phosphokinase proteome profiler array relative to control
[7] = target: Tyrosine-protein kinase HCK (Homo sapiens) (UniProt P08631); assay: Effect on Hck at Y411 phosphorylation level in human NCI-H1975 incubated for 12 hrs by human phosphokinase proteome profiler array relative to beta-catenin
[8] = target: Mitogen-activated protein kinase; ERK1/ERK2 (Homo sapiens) (UniProt P27361+P28482); assay: Effect on ERK1/2 at T202/Y204,T185/Y187 phosphorylation level in human NCI-H1975 incubated for 12 hrs by human phosphokinase proteome profiler array relative to beta-catenin
[9] = target: c-Jun N-terminal kinase, JNK (Homo sapiens) (UniProt P45983+P53779+P45984); assay: Effect on JNK1/2/3 at T183/Y185,T221/Y223 phosphorylation level in human NCI-H1975 incubated for 12 hrs by human phosphokinase proteome profiler array relative to beta-catenin
[10] = target: Cellular tumor antigen p53 (Homo sapiens) (UniProt P04637); assay: Effect on p53 at S15 phosphorylation level in human NCI-H1975 incubated for 12 hrs by human phosphokinase proteome profiler array relative to beta-catenin
[11] = target: Focal adhesion kinase 1 (Homo sapiens) (UniProt Q05397); assay: Effect on FAK at Y397 phosphorylation level in human NCI-H1975 incubated for 12 hrs by human phosphokinase proteome profiler array relative to beta-catenin
[12] = target: 5'-AMP-activated protein kinase catalytic subunit alpha-1 (Homo sapiens) (UniProt Q13131); assay: Effect on AMPK alpha1 at T183 phosphorylation level in human NCI-H1975 incubated for 12 hrs by human phosphokinase proteome profiler array relative to beta-catenin
[13] = target: Serine/threonine-protein kinase mTOR (Homo sapiens) (UniProt P42345); assay: Effect on mTOR at S2448 phosphorylation level in human NCI-H1975 incubated for 12 hrs by human phosphokinase proteome profiler array relative to beta-catenin
[14] = target: Transcription factor Jun (Homo sapiens) (UniProt P05412); assay: Effect on c-Jun at S63 phosphorylation level in human NCI-H1975 incubated for 12 hrs by human phosphokinase proteome profiler array relative to beta-catenin
[15] = target: T2, Serine/threonine-protein kinase AKT (Homo sapiens) (UniProt P31751+Q9Y243+P31749); assay: Effect on Akt1/2/3 at T308 phosphorylation level in human NCI-H1975 incubated for 12 hrs by human phosphokinase proteome profiler array relative to control
[16] = target: Cyclin-dependent kinase inhibitor 1B (Homo sapiens) (UniProt P46527); assay: Effect on p27 at T198 phosphorylation level in human NCI-H1975 incubated for 12 hrs by human phosphokinase proteome profiler array relative to beta-catenin
[17] = target: Cellular tumor antigen p53 (Homo sapiens) (UniProt P04637); assay: Effect on p53 at S46 phosphorylation level in human NCI-H1975 incubated for 12 hrs by human phosphokinase proteome profiler array relative to control
[18] = target: T1, Signal transducer and activator of transcription 6 (Homo sapiens); assay: Effect on STAT6 at Y641 phosphorylation level in human NCI-H1975 incubated for 12 hrs by human phosphokinase proteome profiler array relative to control
[19] = target: Signal transducer and activator of transcription 2 (Homo sapiens) (UniProt P52630); assay: Effect on STAT2 at Y689 phosphorylation level in human NCI-H1975 incubated for 12 hrs by human phosphokinase proteome profiler array relative to control
[20] = target: Mitogen-activated protein kinase 14 (Homo sapiens) (UniProt Q16539); assay: Effect on p38alpha at T180/Y182 phosphorylation level in human NCI-H1975 incubated for 12 hrs by human phosphokinase proteome profiler array relative to beta-catenin
[21] = target: T2, Serine/threonine-protein kinase AKT (Homo sapiens); assay: Effect on Akt1/2/3 at T308 phosphorylation level in human NCI-H1975 incubated for 12 hrs by human phosphokinase proteome profiler array relative to beta-catenin
[22] = target: Tyrosine-protein kinase Fgr (Homo sapiens) (UniProt P09769); assay: Effect on FGR at Y412 phosphorylation level in human NCI-H1975 incubated for 12 hrs by human phosphokinase proteome profiler array relative to control

Row | SMILES | fold change (FC) [1] | fold change (FC) [2] | fold change (FC) [3] | fold change (FC) [4] | fold change (FC) [5] | fold change (FC) [6] | fold change (FC) [7] | fold change (FC) [8] | fold change (FC) [9] | fold change (FC) [10] | fold change (FC) [11] | fold change (FC) [12] | fold change (FC) [13] | fold change (FC) [14] | fold change (FC) [15] | fold change (FC) [16] | fold change (FC) [17] | fold change (FC) [18] | fold change (FC) [19] | fold change (FC) [20] | also measured
1 | CCOc1ccc(-c2nc(/C(N)=N/O)c3[nH]c(=O)n(-c4ccccc4OC)c3n2)cc1 | 0.66 | 1.3 | 1.43 | 0.86 | 0.99 | 1.03 | 0.78 | 1.65 | 0.87 | 1.6 | 1.04 | 1.04 | 1.01 | 1.75 | 1.25 | 1.93 | 1.16 | 0.84 | 0.76 | 1.21 | fold change (FC) [21]: 1.46; fold change (FC) [22]: 1.01
2 | CCOc1ccc(-c2nc(C(=O)NO)c3[nH]c(=O)n(-c4ccccc4OC)c3n2)cc1 | 0.75 | 0.98 | 1.13 | 0.97 | 1.35 | 0.82 | 0.84 | 1.48 | 0.92 | 0.93 | 1.01 | 1.03 | 0.82 | 1.32 | 0.87 | 1.96 | 1.03 | 1.2 | 1.02 | 0.92 | fold change (FC) [21]: 0.98; fold change (FC) [22]: 0.32
